The data set can be described thus: physchem.

This is an account of results in ChEMBL document CHEMBL1123071 (J Med Chem, 1985).

By logP is commonly meant the decadic logarithm of the partition coefficient of the neutral form, usually between octanol and water. A lower logP goes with lower lipophilicity.

The compound `Ic1ccccc1` [IODOBENZENE] showed a logP of 3.25.
